Earlier results in paper PMC11667226 (Theranostics, 2025).

Key:
[1] = tested on: EGFR; details: 12 HNSCC patients, closed-imaging device; ref [43]; cited from earlier work
Source text: In HNSCC, the presence of neck metastasis is the single most important prognostic factor for outcome, and the intended complete removal of regional metastatic disease by neck dissection is a key element of treatment.

[2] = tested on: EGFR; details: 65 patients with OSCC, ref De Wit et al. [39], cited from earlier work
Source text: From the clinical studies of the antibody-based agents (i.e., cetuximab-800CW, panitumumab-IRDye800) targeting EGFR in head and neck cancers, a major focus has been on margin assessment in closed-field imaging systems on the back-table or during the pathological processing postoperatively. […] Van Keulen et al. reported a 95% sensitiv ...

**Q.** For “cetuximab-800CW: antibody-based optical imaging agent targeting EGFR”, which “Sensitivity for detection of metastasis” value [1] is on record?
**A.** Its value is 97.2%.

**Q.** What about the “Sensitivity for detection of close margins (<5mm)” value ([2]; threshold SBR 1.5) of the same substance?
**A.** Its value is 70.3%.

**Q.** And the “Specificity for detection of close margins (<5mm)” value ([2]; threshold SBR 1.5)?
**A.** Its value is 76.1%.

**Q.** And the “Sensitivity for detection of positive margins” value ([2]; threshold SBR 2)?
**A.** Its value is 100%.

**Q.** What about the “Specificity for detection of positive margins” value ([2]; threshold SBR 2) of the same substance?
**A.** The value was 85.9%.
